We go through one substance from patent US11441144B2, “Methods of polynucleotide preparation using multivalent cation salt compositions” (Geron Corporation, priority 2015, dated 2022).

The format of this series is physicochemical. The protocol: The crystallization or precipitation of divalent or trivalent forms of Imetelstat was investigated using a large excess of inorganic salts of interest (900 equivalents, weight base). 1M salt solutions CaCl2, MgCl2, BaCl2, CuCl2, ZnCl2, AlCl2, FeCl2, and FeCl3 were prepared. Three types of Imetelstat solution: crude Imetelstat solution (ammonium salt), purified Imetelstat (triethylammonium (TEA) salt form), and Imetelstat sodium (Na salt form), were mixed with each salt solution.
The solubilities of the precipitates isolated under the conditions of large excess of salt regent were initially investigated using the following solvents: water, acetonitrile, MeOH, EtOH, IPA (isopropyl alcohol), 0.1M NaOH, 0.1M HCl, 1M NaCl, and NMP.
For salts precipitated in a large excess of salt reagent, calcium, barium, and magnesium salts of Imetelstat were soluble in a 0.1M NaOH and 1M NaCl solution. (see Table 2). Solubility studies of Imetelstat precipitate obtained from a large excess of magnesium salt reagent were conducted in 1M NaCl solutions at different concentrations (2 mg/mL to 6 mg/mL) and under different pH conditions (pH 8, 9, 10, 11, 12) and analyzed by HPLC (see chromatograms of FIG. 1).

Consider CaCl2, for which the “Solubility in a 0.1M NaOH and 1M NaCl solution” value is “soluble”.
